This assay has as its target T1, Tyrosine-protein kinase JAK3 (Homo sapiens, UniProt P52333).
T1 sequence (P52333 whole entry): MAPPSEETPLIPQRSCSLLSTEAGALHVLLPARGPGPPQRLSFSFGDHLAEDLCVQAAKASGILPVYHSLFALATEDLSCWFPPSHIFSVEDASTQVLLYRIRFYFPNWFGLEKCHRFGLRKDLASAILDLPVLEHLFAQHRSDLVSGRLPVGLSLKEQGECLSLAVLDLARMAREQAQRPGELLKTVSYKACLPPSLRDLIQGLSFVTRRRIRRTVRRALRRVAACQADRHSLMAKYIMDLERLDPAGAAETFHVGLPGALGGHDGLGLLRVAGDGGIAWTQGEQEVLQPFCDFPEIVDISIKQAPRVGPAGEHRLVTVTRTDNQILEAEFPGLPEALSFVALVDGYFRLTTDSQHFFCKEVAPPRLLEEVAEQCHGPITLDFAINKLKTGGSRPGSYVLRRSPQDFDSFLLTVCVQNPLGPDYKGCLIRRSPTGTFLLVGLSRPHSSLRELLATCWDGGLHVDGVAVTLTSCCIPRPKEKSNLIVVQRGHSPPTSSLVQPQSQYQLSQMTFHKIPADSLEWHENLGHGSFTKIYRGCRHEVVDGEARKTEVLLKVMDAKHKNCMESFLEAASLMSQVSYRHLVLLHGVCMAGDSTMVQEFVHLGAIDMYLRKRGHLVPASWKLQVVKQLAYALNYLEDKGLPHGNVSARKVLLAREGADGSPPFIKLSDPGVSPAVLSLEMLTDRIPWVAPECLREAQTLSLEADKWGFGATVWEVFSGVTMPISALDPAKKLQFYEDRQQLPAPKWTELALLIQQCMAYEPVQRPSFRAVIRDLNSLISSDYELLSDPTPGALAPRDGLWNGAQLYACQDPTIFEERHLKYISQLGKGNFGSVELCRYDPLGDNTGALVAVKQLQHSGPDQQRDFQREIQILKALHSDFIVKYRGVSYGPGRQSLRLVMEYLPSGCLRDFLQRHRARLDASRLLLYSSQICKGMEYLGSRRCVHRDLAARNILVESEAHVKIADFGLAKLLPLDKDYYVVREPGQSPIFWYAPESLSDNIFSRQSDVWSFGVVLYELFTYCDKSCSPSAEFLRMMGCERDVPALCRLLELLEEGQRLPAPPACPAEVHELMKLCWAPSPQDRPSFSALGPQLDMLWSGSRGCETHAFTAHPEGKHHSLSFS
Briefly: A panel of four LanthaScreen JAK biochemical assays (JAK1, 2, 3 and Tyk2) were carried in a common kinase reaction buffer (50 mM HEPES, pH 7.5, 0.01% Brij-35, 10 mM MgCl2, and 1 mM EGTA). Recombinant GST-tagged JAK enzymes and a GFP-tagged STAT1 peptide substrate were obtained from Life Technologies. Serially diluted compounds were pre-incubated with each of the four JAK enzymes and the substrate in white 384-well microplates (Corning) at ambient temperature for 1 h. ATP was subsequently added to initiate the kinase reactions in 10 μL total volume, with 1% DMSO. […] Kinase reactions were allowed to proceed for 1 hour at ambient temperature before a 10 μL preparation of EDTA (10 mM final concentration) and Tb-anti-pSTAT1 (pTyr701) antibody (Life Technologies, 2 nM final concentration) in TR-FRET dilution buffer (Life Technologies) was added. The plates were allowed to incubate at ambient temperature for 1 h before being read on the EnVision reader (Perkin Elmer). On the technique in general: TR-FRET usually uses a lanthanide donor and a delayed reading to cut background.

As usually defined, the Ki is the equilibrium dissociation constant of an inhibitor or competing ligand from its target.

As for `CCCN1Cc2[nH]c(-c3n[nH]c4cc(-c5cc(F)c(O)cc5CC)ccc34)nc2C[C@H]1C(=O)N1CCN(CCO)C[C@H]1C` [US11667637, Example 7], the Ki was 160 pM.

Source of the values: BindingDB's records for patent US11667637 (Theravance Biopharma R&D Ip, 2023).
